Earlier results in publication PMC4645461, “Increased food intake with oxyntomodulin analogues” (Peptides, 2015).

What was measured:
[1] = ref [36],[37]; cited from earlier work
[2] = no reference given; cited from earlier work
Description: Additionally, methods of peptide administration differ: some studies infused peptides while others administer ...

oxyntomodulin [OXM]
blood glucose [1]: does not elevate blood glucose | stability in solution [2]: unstable in solution
